# Binding of CDR-mutated scFvs to a peptide of the spike HR2 region

The measurements come from Engelhart et al. 2022 (doi:10.1038/s41597-022-01779-4) through the FLAb antibody collection.

Antigen: PDVDLGDISGINAS, a 14-residue peptide of the SARS-CoV-2 spike HR2 region.

Ab-14 is the parent antibody, in scFv form: VH, then the linker GGGGSGGGGSGGGGS, then VL. The heavy chain is unchanged in all variants.
VH: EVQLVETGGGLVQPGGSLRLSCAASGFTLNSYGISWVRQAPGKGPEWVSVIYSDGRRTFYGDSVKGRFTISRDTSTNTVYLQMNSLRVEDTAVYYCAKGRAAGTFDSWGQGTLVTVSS
VL: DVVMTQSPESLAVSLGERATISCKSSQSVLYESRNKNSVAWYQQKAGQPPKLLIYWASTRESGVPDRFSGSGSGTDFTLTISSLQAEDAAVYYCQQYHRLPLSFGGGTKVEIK

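The parent was found by panning a naive human phage display library on the peptide. The library (AAYL50) carries one to three amino acid substitutions per variant, with no insertions or deletions. AlphaSeq pools MATa yeast showing the antibodies with MATalpha yeast showing the peptide. Binding brings cells together so that they mate, and sequencing counts the barcode pairs among the diploids. The ratio of observed to expected reads was calibrated, replicate by replicate, on BCL2-family standards whose Kd was known from biolayer interferometry. There are three technical replicates.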

Variants are written as CDR1, CDR2 and CDR3 of the light chain (limits as in the source). Parent: KSSQSVLYESRNKNSVA, WASTRES, QQYHRLPLS.
Numbers give log10(Kd / nM), so 0 is 1 nM and 3 is 1 µM. Smaller is tighter.
An entry "nd" has no value in the source: the pair was not observed among the diploids in that replicate. This suggests poor binding but is not conclusive.
Nonspecific signal, from three strains lacking the peptide, appeared in 18% of pairings of library AAYL50, centred on 4.19 (5% of these signals below 2.99); values are not corrected for it.
For reference, the parent read 0.65 as the reference entry and 1.68 as a member of this library.

CDR-L1,CDR-L2,CDR-L3,"replicates, log10 nM"
KSRQEVLKESRNKNSVA,WASTRES,QQYHRLPLS,1.93 / 1.78 / 2.00
KSSQSDLYESRNKNSVA,WASTHES,QQYHRTPLS,nd / nd / nd
KSSQSVLYESRNKNSVA,WAWHRES,QQYFRLPLS,2.00 / nd / 2.92
KSSQSVLYESYNKNSVA,WASTREK,QQAHRLPLS,4.96 / nd / 4.40
KSSQSVLYESWNKTSIA,WASTRES,QQYHRLPLS,1.57 / 1.50 / 1.44
KSSQSVLYESTMKNSVA,WASTRES,QQYHRLPHS,nd / nd / nd
KSSQSVLYYSRNKWSVA,WASTRES,QQYHRLTLS,2.75 / 2.54 / 2.31
KSSQSVLWESRNKNSYA,WASTRES,QQYHRLPLS,nd / 4.08 / nd
KSSQSVLYESRNKNSVA,WASTDES,QVYHRLPLS,3.92 / 4.21 / nd
KSSQSVLYESRNKNSVT,WASTRES,QIYHRLPLS,nd / nd / nd
KSSQSVLYSSRNKNSVA,WSSTRES,QQFHRLPLS,2.56 / 2.30 / 2.47
KSSQSVLRESRNKCSVA,WASTRES,QQYHRLPLR,nd / nd / nd
KSDQSVLYESRNKNSVA,WASTRES,QQYHWNPLS,nd / nd / nd
KSSQSVLYESRNKPSVA,WAMTQES,QQYHRLPLS,nd / nd / nd
KSSQSILYEARNKNSVA,WASTRES,QQYHRTPLS,5.05 / 5.06 / nd
KSSQSVLYESRNKNSVA,EASKRES,QQYHVLPLS,0.51 / 0.68 / 0.70
QSSQSVLYESRNKNQVA,WASTRES,QQYHRLPLS,2.06 / 2.10 / 4.50
KSSQSVLYESRNKLSVA,WASNRES,QQYHRLPPS,nd / nd / 4.15
KSSQSVLYESRNKNSVA,WASTRES,QQYHRRTLS,nd / nd / nd
KSSQSVLYESRNKNSVA,WAHTREL,QQYHRLPLH,2.12 / 2.56 / 2.25
KSTQSVLYESRNKNSVA,WCSTRES,QQCHRLPLS,nd / nd / nd
KPSQSVLYESRNKNSVA,WAETRES,QQYHRLPHS,0.95 / 1.02 / 1.08

Continued, with the values leading:

"replicates, log10 nM",CDR-L1,CDR-L2,CDR-L3
2.13 / 1.85 / 2.39,KISFSVLYELRNKNSVA,WASTRES,QQYHRLPLS
nd / nd / nd,KQSHSVLYESRNKNSVA,WASTRES,QQYHRLPYS
4.01 / 3.47 / 3.94,KSSQSVLYESRNANSVA,WASTRIS,QQYHRLPLG
0.03 / 0.28 / 0.01,KSSQSVLYESRNHASVA,EASTRES,QQYHRLPLS
1.34 / 1.41 / 1.41,KSSQSVLYESRNKNSVA,WASTRET,QQYHQLPLS
1.38 / 1.78 / 1.68,KSSQSVLYESRNKNSVA,WASTRES,QQYHSLNRS
4.61 / nd / nd,KSSQSVLYESKNKNSVA,WASTRES,QQYPHLPLS
nd / nd / nd,KSRQSVLYESRNKNSVE,WASTRES,QQYHRLPLS
nd / nd / nd,KSSQAVLYEWRNKNSVA,WASTRES,QCYHRLPLS
0.32 / 0.71 / 0.72,KSSQIVLYENRNKNSVA,WALTRES,QQYHRLPLS
1.32 / 1.56 / 1.24,KLSQSVLYESRNKNSVA,WALTRES,QQYHRLDLS
2.93 / 1.75 / 2.18,KSSQSVLYESENKNSVA,WASWRES,QQYHRLALS
1.77 / 1.44 / 1.39,KSDQSVLYTSRNKNSVA,WASTRES,QQYHRLPLL
nd / nd / nd,KSSQSVLYHSRNKNSVA,WASTNES,QAYHRLPLS
nd / nd / nd,KSSQSVLYESRNKNSVA,WWSTRES,QQYHDLPLF
nd / nd / nd,KSSQSVLYESRNKNSVA,WASTRES,QQYHRCPIT
1.49 / 1.38 / 1.29,KSSISVLYESRNKYSVA,WASTRHS,QQYHRLPLS
nd / 5.11 / nd,KSSQSVLYESRNKNSVA,WASTLET,QVYHRLPLS
2.00 / 1.77 / 1.94,KSSQSVNYEKRLKNSVA,WASTRES,QQYHRLPLS
nd / 4.78 / nd,KSSQSVLYESRYKNSVP,WASHRES,QQYHRLPLS
nd / nd / 5.24,KSSQSVLYESRNKNSVA,WQSTRGS,QQMHRLPLS
3.21 / nd / 2.36,KSSHSVLYTSRNKNSVA,WASTRES,QQYHVLPLS

Extract of 3 entries:

| CDR-L1 | CDR-L2 | CDR-L3 | replicates, log10 nM |
|---|---|---|---|
| KSSQSVLYESRNHASVA | EASTRES | QQYHRLPLS | 0.03 / 0.28 / 0.01 |
| KSSQSVLWESRNKNSYA | WASTRES | QQYHRLPLS | nd / 4.08 / nd |
| KQSHSVLYESRNKNSVA | WASTRES | QQYHRLPYS | nd / nd / nd |